## Apparent affinities of Ab-91 variants for a coronavirus HR2 peptide

Antigen: PDVDLGDISGINAS, a 14-residue peptide of the SARS-CoV-2 spike HR2 region.

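The starting antibody came from a phage panning campaign against this peptide. Library AAYL51 holds single substitutions and randomly drawn double and triple substitutions in the CDRs. In AlphaSeq, yeast of one mating type display the scFv and yeast of the other type display the target. Mating (16 h, 30 °C) was followed by selection of diploids and sequencing of their barcodes. A regression on co-assayed BCL2-family reference pairs converts the normalised counts of each replicate to an apparent Kd. Each pool was mated in three replicate cultures.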

The variants keep the light chain, the linker and the frameworks of Ab-91 (scFv order VL, the linker GGGGSGGGGSGGGGS, VH).
VL: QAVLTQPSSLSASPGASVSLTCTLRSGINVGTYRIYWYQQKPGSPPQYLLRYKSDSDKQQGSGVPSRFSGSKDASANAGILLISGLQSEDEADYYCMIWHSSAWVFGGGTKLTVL
VH: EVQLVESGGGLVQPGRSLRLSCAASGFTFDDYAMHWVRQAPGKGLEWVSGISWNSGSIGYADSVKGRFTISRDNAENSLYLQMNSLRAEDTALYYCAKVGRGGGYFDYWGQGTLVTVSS

Each variant is given by its three heavy chain CDRs, as the data file delimits them; those of the parent are GFTFDDYAMH, GISWNSGSIGYADSVK, VGRGGGYFDY.
All variants listed here change Y32 of the VH, counted from its first residue.
Each Kd is an estimate from the mating assay, the geometric mean of the replicates in which the pair was seen; lower is stronger.
A pair that was not seen in any replicate is written "no signal"; this usually means weak binding, but a binder can also be missed.
In this assay the parent's reference entry averaged 72 nM; its copy inside this library read 7.5 nM.
As a blank, each scFv also met three strains without target: over library AAYL51, 21% of these pairings were detected, typically at 34 µM and seldom below 1.8 µM.

Variant GATFDDGAMH / GISWNSGVIGYADSVK / VGRGGGYFDY gave 170 µM (2 of 3 replicates). For GFTFDDMAMN / GISWNSGSIHYADSVK / VGRGGGYFDY, the assay gave no signal (0 of 3 replicates). Variant NFTFDDFAMH / GISWNSGSIGYADSVV / VGRGGGYFDY showed no signal (0 of 3 replicates). For GFTFDDMAMH / GISWNSDSIGYADSVK / VGRGGGFFDY, the assay gave 18 nM (3 of 3 replicates). Variant GFTFDDGADH / GISWNSGSIGYASSVK / VGRGGGYFDY showed 110 µM (3 of 3 replicates). For GFTFLDTAMH / GISWNSGSIGYYDSVK / VGRGGGYFDY, the assay gave 2.7 mM (1 of 3 replicates). With GFTFDDSHMH / GISWNSTSIGYADSVK / VGRGGGYFDY the result was 2.9 µM (1 of 3 replicates).

Variant GFTFDDNAMH / GISWNSGSIGYADSTK / VGRGGGIFDY gave 22 µM (2 of 3 replicates). Variant GFPFDDAAMH / GIPWNSGSIGYADSVK / VGRGGGYFDY showed 45 µM (2 of 3 replicates). With GFTNDDDAMH / GISWNSGSIGYADSVK / LGRGGGYFDY the result was 120 µM (2 of 3 replicates). For GFTFDDIAMH / GISVNSGSIGYADSVK / VGRGGGYFDY, the assay gave no signal (0 of 3 replicates). With GFTFDDPRMH / GISWNSGSIGYADSVK / VGRGGGYFNY the result was 950 µM (1 of 3 replicates). For GFTFDDWAMH / GISWNSGSIGYADSVM / EGRGGGYFDY, the assay gave 170 µM (2 of 3 replicates). For GYTFDDMAMH / GISWNSGSIGYAASVK / VGRGGGYFDY, the assay gave no signal (0 of 3 replicates).

For GFTDDDTEMH / GISWNSGSIGYADSVK / VGRGGGYFDY, the assay gave 2.7 µM (1 of 3 replicates). For GFTFDDTAMH / WISWNSPSIGYADSVK / VGRGGGYFDY, the assay gave 45 µM (2 of 3 replicates). Variant GFTFDDPAMH / GISWNSGSIGYADSGK / VGRQGGYFDY gave 56 µM (2 of 3 replicates). With GFTFDDSAMH / GISWNSGSIGYADEVK / VGRGGGYFDY the result was 28 nM (3 of 3 replicates). For GFTFDDEAMH / GISWNSGSIGYADSKK / VGRGGGYFDY, the assay gave no signal (0 of 3 replicates). For GFTFDDDAMH / GISWNSGSIGYADSTK / VGRGEGYFDY, the assay gave no signal (0 of 3 replicates). Variant GFTFDDDAMH / RISWNSGSIGYADSVK / VGRGGGYFDD showed no signal (0 of 3 replicates).

For GFTFDDFAMH / GISSNSGSIGYADSVK / VGRGGKYFDY, the assay gave no signal (0 of 3 replicates). For GFTFDDKAMH / GISWNSGSIGYWDSVK / VGRGGGYFDY, the assay gave 46 µM (1 of 3 replicates). Variant GFTWDDAAMH / GISWNSGSIGYADSVR / VGRGGGYFDY gave 180 µM (3 of 3 replicates). With GFTFDDLAMN / GISWNSGSIGNADSVK / VGRGGGYFDY the result was 5.5 µM (1 of 3 replicates). Variant GFVFDDGAMH / GISWNSGSIGYADSVK / VGRGGGHFDY showed no signal (0 of 3 replicates). Variant GTTFDDWADH / GISWNSGSIGYADSVK / VGRGGGYFDY gave 110 µM (3 of 3 replicates). With GFTFDDNMMH / GISWNSGSIGYADSHK / VGRGGGYFDY the result was no signal (0 of 3 replicates).

With GFTFDDPAMH / GISWNSGSIGYADSVP / VGIGGGYFDY the result was no signal (0 of 3 replicates). Variant GFTFDYWAMH / GISWNSGSIGYADSVK / VGRGGGYFDE gave no signal (0 of 3 replicates). Variant GFTFDGWDMH / GISWNSGSIGYADSVK / VGRGGGYFDY gave no signal (0 of 3 replicates). With GFLFDDSAMH / GISWFSGSIGYADSVK / VGRGGGYFDY the result was no signal (0 of 3 replicates). Variant GFTFDDQAMH / GISWNSGSIGYADSVK / VGRQGGYFDY gave 27 µM (1 of 3 replicates). Variant GLTFDDKAMH / GISTNSGSIGYADSVK / VGRGGGYFDY showed no signal (0 of 3 replicates). Variant GKTFDDNAMH / GISWNSGSIGYADSVK / VGRHGGYFDY showed no signal (0 of 3 replicates).

For GFTFDDRAMH / GIIWNSGFIGYADSVK / VGRGGGYFDY, the assay gave no signal (0 of 3 replicates). Variant TFTFDDQAMH / GISWNSGSIGYADSFK / VGRGGGYFDY gave 880 µM (2 of 3 replicates). Variant GFTFDDDAMH / GISWNIGSIGYADSVK / VGRGGGYFDT gave 13 µM (1 of 3 replicates). Variant GFTFDDMAMH / GISWNSGSIGYAISVK / VGRGGGYFLY showed no signal (0 of 3 replicates). With GFTFDDVAMH / GISWNSGSIGYADSVK / VGAGGGYFDG the result was 27 nM (3 of 3 replicates). Variant GFTEDDSAMH / GISWNSGSIGYADSVK / VGVGGGYFDY gave 74 µM (3 of 3 replicates).

The first 3 entries again:

| CDR-H1 | CDR-H2 | CDR-H3 | Kd | replicates with signal |
|---|---|---|---|---|
| GATFDDGAMH | GISWNSGVIGYADSVK | VGRGGGYFDY | 170 µM | 2/3 |
| GFTFDDMAMN | GISWNSGSIHYADSVK | VGRGGGYFDY | no signal | 0/3 |
| NFTFDDFAMH | GISWNSGSIGYADSVV | VGRGGGYFDY | no signal | 0/3 |

Values reported by Engelhart et al. 2022, doi:10.1038/s41597-022-01779-4 (FLAb copy).